The assay has as its target T1, β-chain of the human GM-CSF receptor (pKH97) on COS 7 cells (Homo sapiens, UniProt P32927).
T1 construct: expressed in transfected cells; host or cells: COS 7 cells (transient, DEAE-dextran)
T1 sequence (P32927 17-897 I454T): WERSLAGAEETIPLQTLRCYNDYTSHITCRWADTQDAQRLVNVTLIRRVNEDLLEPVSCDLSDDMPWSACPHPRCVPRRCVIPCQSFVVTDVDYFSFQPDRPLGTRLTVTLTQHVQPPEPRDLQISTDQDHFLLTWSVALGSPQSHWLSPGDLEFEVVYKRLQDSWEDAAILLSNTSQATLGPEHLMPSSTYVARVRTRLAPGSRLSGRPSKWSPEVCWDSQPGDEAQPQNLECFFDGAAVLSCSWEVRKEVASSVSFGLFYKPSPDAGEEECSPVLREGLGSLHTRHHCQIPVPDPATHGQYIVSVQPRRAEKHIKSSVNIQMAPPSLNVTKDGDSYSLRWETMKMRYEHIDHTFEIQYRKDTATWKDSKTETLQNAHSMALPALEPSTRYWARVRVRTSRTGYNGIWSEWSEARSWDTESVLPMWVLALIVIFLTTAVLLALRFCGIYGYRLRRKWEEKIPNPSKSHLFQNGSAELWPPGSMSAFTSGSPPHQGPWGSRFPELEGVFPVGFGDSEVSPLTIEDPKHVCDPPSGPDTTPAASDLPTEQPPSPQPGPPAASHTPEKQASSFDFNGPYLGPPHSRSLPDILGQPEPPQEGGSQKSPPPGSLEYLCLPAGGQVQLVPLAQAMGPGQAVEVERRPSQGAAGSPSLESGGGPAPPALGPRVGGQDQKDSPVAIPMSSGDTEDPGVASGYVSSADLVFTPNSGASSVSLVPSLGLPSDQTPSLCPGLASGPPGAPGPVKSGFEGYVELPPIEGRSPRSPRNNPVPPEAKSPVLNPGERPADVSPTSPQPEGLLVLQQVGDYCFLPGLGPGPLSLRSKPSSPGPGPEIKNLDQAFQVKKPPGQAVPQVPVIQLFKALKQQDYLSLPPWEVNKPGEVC
The experiment in a line: Binding of iodinated human cytokines to COS 7 cells transfected with pKH97 alone. Conditions: COS 7 cells transfected with pKH97, 72 hours after transfection. How it is done: Res. Commun., Vol. 80, pgs. […] Generally, the binding assay is conducted as described by Lowenthal et al., J. Immunol., Vol 140, pgs.

As to “IL-2: human cytokine, iodinated, tested for binding to pKH97-transfected COS 7 cells”, the specific binding entry (iodinated cytokine at 1 nM) is on record as “No specific binding”.

B1: IL-3: human cytokine, iodinated, tested for binding to pKH97-transfected COS 7 cells (protein, UniProt P08700 20-152, looked up)
Interleukin-3: APMTQTTPLKTSWVNCSNMIDEIITHLKQPPLPLLDFNNLNGEDQDILMENNLRRPNLEAFNRAVKSLQNASAIESILKNLLPCLPLATAAPTRHPIHIKDGDWNEFRRKLTFYLKTLENAQAQQTTLSLAIF
modifications: 125I-labelled
On to B1, for which the specific binding result (iodinated cytokine at 20 nM) was “No specific binding”.

These data come from US5705611A, “Human GM-CSF receptor component” (Schering Corporation, priority 1993, dated 1998).
